Test results: ChEMBL document CHEMBL1133037, “The design, synthesis and physical chemical properties of novel human vasopressin V2-receptor antagonists optimized for parenteral delivery” (Bioorg Med Chem Lett, 2000)

Sequences of proteins named here, by UniProt entry; tags and fusion partners are left off.
UniProt P30518, whole entry: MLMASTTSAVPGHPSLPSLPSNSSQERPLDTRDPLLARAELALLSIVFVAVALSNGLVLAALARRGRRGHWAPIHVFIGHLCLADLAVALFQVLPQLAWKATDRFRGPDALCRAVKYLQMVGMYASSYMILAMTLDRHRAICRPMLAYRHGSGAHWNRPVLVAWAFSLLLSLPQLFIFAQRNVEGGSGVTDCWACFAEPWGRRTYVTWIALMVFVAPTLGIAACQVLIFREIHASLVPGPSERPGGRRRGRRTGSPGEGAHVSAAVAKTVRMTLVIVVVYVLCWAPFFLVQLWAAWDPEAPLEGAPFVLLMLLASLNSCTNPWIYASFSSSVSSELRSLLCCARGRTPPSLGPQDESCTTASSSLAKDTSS

Molecular target: Vasopressin V2 receptor (Homo sapiens, UniProt P30518)
Assay: Displacement of [3H]AVP from human vasopressin V2-receptor expressed in murine fibroblast cell (LV2) membranes
Assay type: cell-based

Row | IC50 | Structure (SMILES)
1 | 11.5 nM | CN1CCN(C(=O)c2ccc3n2Cc2ccccc2N(C(=O)c2ccc(NC(=O)c4ccccc4-c4ccccc4)cc2Cl)C3)CC1.O=C(O)CC(O)(CC(=O)O)C(=O)O
2 | 4 nM | O=C(Nc1ccc(C(=O)N2Cc3ccc(C(=O)O)n3Cc3ccccc32)c(Cl)c1)c1ccccc1-c1ccccc1
